Results published in patent US20230038929A1, “Fused Tricyclic Heterocyclic Compounds and Uses Thereof” (Verge Analytics, Inc., priority 2019, published 2023).

Chains of the proteins cited; added tags and fusions are not shown. Lines headed by an entry give the natural chain unless they say otherwise; changes in a name come on top.
UniProt P48736: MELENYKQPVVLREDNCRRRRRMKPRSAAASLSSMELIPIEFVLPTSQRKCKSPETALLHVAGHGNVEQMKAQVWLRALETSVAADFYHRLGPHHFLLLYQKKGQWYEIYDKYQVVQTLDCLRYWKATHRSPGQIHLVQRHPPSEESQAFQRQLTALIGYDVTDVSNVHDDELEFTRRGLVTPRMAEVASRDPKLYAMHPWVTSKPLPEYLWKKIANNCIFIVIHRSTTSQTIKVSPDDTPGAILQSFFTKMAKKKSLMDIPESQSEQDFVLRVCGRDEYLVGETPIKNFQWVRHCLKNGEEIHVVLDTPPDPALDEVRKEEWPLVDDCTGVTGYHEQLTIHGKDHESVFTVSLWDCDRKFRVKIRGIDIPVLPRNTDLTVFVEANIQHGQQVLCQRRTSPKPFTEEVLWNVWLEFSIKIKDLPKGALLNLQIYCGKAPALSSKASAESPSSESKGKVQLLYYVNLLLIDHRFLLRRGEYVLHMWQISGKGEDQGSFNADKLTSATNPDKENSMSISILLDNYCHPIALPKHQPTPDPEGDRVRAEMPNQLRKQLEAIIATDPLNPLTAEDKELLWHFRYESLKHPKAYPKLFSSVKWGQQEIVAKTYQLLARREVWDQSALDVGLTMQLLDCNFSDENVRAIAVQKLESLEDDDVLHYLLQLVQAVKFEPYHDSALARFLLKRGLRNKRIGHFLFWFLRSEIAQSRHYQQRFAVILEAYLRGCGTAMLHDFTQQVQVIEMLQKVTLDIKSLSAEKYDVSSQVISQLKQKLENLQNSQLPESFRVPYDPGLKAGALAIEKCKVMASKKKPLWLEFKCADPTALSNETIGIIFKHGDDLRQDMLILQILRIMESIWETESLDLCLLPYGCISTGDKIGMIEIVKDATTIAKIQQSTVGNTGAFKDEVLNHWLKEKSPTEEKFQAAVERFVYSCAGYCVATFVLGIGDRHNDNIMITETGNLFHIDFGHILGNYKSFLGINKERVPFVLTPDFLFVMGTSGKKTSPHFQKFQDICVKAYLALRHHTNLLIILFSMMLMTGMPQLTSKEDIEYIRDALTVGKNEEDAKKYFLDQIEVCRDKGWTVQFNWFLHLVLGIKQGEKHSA

Biological target: PI3Kγ (p120γ) (Homo sapiens, UniProt P48736)
Test: Inhibition of PI3K isoforms: PI3Kγ
Conditions: read-out: PI3Kγ IC50; 10 nM enzyme, ATP 100 μM, 1 μM PIP2, 3 h room temperature

With `O=C(Nc1nc(N2CCOCC2)c2oc3ncccc3c2n1)Oc1ccccc1` [Example 22, phenyl(4-morpholinopyrido[3′,2′:4,5]furo[3,2-d]pyrimidin-2-yl)carbamate hydrochloride] the IC50 was > 10 µM.

Where a name gives a salt, the structure may show the parent alone.
